# PGC1a acetyl inh – PGC1a acetylation modulation, inhibitor mode | inhibition, % at 15.6 µM | U2OS PGC1a acetylation, AlphaScreen anti-acetyl-lysine; with virally co-expressed GCN5 acetyltransferase | 350,000 compounds, 0.17% hits | AID 651687;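 active means every replicate shows inhibition of at least 40%; inconclusive means mean inhibition at least 40% but some replicate below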;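 further: 0% = neutral control wells and 100% = positive control wells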
# miR122 inh – blocks miR-122 activity in Huh7 sensor cells; Huh7 miR-122 Renilla luciferase sensor, 48 h; neutral wells = 0, positive control = 100; activation (reporter increase), % at 12.5 µM; 340,000 compounds, 0.3% hits;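 active means mean replicate activation score at least 90 and every replicate individually at or above 90; inconclusive means only one of the two criteria met; inactive means neither criterion met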;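 further: higher luciferase means less miR-122 activity so hits act as miR-122 inhibitors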
# HIV Env fusion – inhibitors of HIV Env-mediated cell fusion | 360,000 compounds, 1.1% hits | inhibition, % at 12.3 µM | HeLa-JRFL Env/CEM21 cell fusion, luciferase | AID 651610;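 active means mean replicate inhibition score of at least 50 and every replicate individually at or above 50; inconclusive means only one of the two criteria met; inactive means mean below 50 and not all replicates reaching 50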;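 further: 0% = plate neutral controls and 100% = maraviroc near 300 nM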
# Cneo AK release – causes C. neoformans cell lysis | 360,000 compounds, 0.2% hits | adenylate kinase release luminescence, 4 h; normalised: neutral wells 0, clomiphene wells 100 | AID 651654 | lysis activity, % at 15 µM;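 active means mean lysis activity across replicates of at least 80%, whatever share of replicates individually reach that level; inactive means mean lysis activity below 80%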
#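 read-out = cell lysis signal | test system = log-phase Cryptococcus neoformans yeast cells | input = cells at 5 × 10^6 per mL | medium = fresh YPD growth medium | signal = luminescent adenylate kinase detection reagent | timing = 4 h at 37 °C static, read 1 h later | dosing = single dose | controls = Clomiphene as positive lysis control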
# Yeast UUG start – yeast start codon fidelity modulation; AID 602363; activity score, % at 18.7 µM; S. cerevisiae UUG-firefly luciferase reporter, luminescence/redox ratio; 0.13% of 350,000 active;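 active means replicate mean at a twofold rise or more, about +100% in these data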;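 further: firefly luciferase made from a UUG start codon reports start codon fidelity; reporter light over untreated wells divided by growth signal over untreated wells; some hits fall short of that in this replicate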
# FN deposit inh – fibronectin deposition inhibition; AH1F fibroblasts, Alexa488-fibronectin deposition fluorescence, overnight; inhibition, % at 12.6 µM; 350,000 compounds, 0.086% hits; AID 743247;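 active means mean inhibition across replicates of 30% or more, regardless of how many single replicates reach that level; inconclusive means mean under 30% yet at least half of replicates reach 30%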;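 further: positive control wells lacked labelled fibronectin entirely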
#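 Assay system: AH1F fibroblast monolayer, labelled fibronectin deposition. Amount: 10000 cells per well. Also added: labelled fibronectin 24 nM. Compound: single-point pinned compound. Incubation: cell attachment 1 h, compound and FN exposure overnight. Detection: fluorescence after three HBSS washes, excitation 485 nm, emission 525 nm. Read-out: inhibition of fibronectin deposition signal.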
# * marks the source's active call; other numbers are inactive results; ? = inconclusive; · = not tested or not shown; [ ] = another dose, or the depositor's remark. An excerpt weighted towards active compounds, which were near 1.5% of everything screened.
1) COc1cccc(NC(=O)N(C)C[C@@H]2OCc3ccccc3-c3c(n(C)c4ccccc34)C(=O)N([C@@H](C)CO)C[C@H]2C)c1
2) C[C@H](CO)N1C[C@H](C)[C@@H](CN(C)C(=O)Nc2ccc(F)cc2)OCc2ccccc2-c2c(n(C)c3ccccc23)C1=O
3) COc1cccc(NC(=O)N(C)C[C@@H]2OCc3ccccc3-c3c(n(C)c4ccccc34)C(=O)N([C@@H](C)CO)C[C@@H]2C)c1
4) C[C@H]1CN([C@@H](C)CO)C(=O)c2c(c3ccccc3n2C)-c2ccccc2CO[C@H]1CN(C)C(=O)Nc1cccc(F)c1
5) O=C(O)CNc1nc(-c2ccccc2)c2cc([N+](=O)[O-])ccc2n1
6) COc1cccc(S(=O)(=O)N(C)C[C@H]2Oc3cc(C#CCC(C)C)ccc3S(=O)(=O)N([C@H](C)CO)C[C@H]2C)c1
7) COc1cccc(S(=O)(=O)N(C)C[C@@H]2Oc3cc(C#CCC(C)C)ccc3S(=O)(=O)N([C@H](C)CO)C[C@@H]2C)c1
8) COc1ccccc1S(=O)(=O)N(C)C[C@H]1Oc2cc(C#CCC(C)C)ccc2S(=O)(=O)N([C@@H](C)CO)C[C@H]1C

entry no.	1	2	3	4	5	6	7	8
PGC1a acetyl inh	-50.9	-1.0	2.9	·	21.3	6.8	-10.9	-5.3
miR122 inh	·	·	·	·	-0.9	39.6[16.7 µM]	-6.9[16.7 µM]	37.0[16.7 µM]
HIV Env fusion	14.3[16.7 µM]	57.7*[16.7 µM]	57.4*[16.7 µM]	88.0*	-15.2	72.9*[16.7 µM]	61.8*[16.7 µM]	55.0*[16.7 µM]
Cneo AK release	0.2	-1.7	2.0	·	·	2.6	4.1	42.1
Yeast UUG start	·	·	·	·	1.6	-15.6	-12.5	-1.8
FN deposit inh	6.2	-10.6	2.0	-4.3	-6.5	-6.4	-5.2	·

9) COc1ccccc1S(=O)(=O)N(C)C[C@H]1Oc2cc(C#CCC(C)C)ccc2S(=O)(=O)N([C@H](C)CO)C[C@@H]1C
10) CCOc1ccc(-n2c(C)cc(/C=N/NC(=O)C(N)=O)c2C)cc1
11) Cn1c(=O)c2c(nc(Oc3ccc4ccccc4c3)n2C)n(C)c1=O
12) CCNc1nc2c(c(=O)n(C)c(=O)n2C)n1Cc1ccc(Cl)cc1
13) COc1ccc(Oc2nc3c(c(=O)n(C)c(=O)n3C)n2C)cc1
14) Cn1c(=O)c2c(nc(Br)n2Cc2ccccc2Cl)n(C)c1=O
15) Cn1c(=O)c2c(nc(Br)n2Cc2ccc3ccccc3c2)n(C)c1=O
16) CCC(C)Nc1nc2c(c(=O)n(C)c(=O)n2C)n1Cc1ccc(Cl)cc1 (stereo not given)

entry no.	9	10	11	12	13	14	15	16
PGC1a acetyl inh	-8.4	-0.5	17.1	26.0	19.4	-2.3	14.6	3.0
miR122 inh	20.6[16.7 µM]	·	11.2	-12.1	1.1	1.9	36.5	3.1
HIV Env fusion	25.6[16.7 µM]	-0.5	102.5*	60.1*	?	·	58.5*	2.6
Cneo AK release	3.4	·	-3.3	-2.4	-0.2	-6.4	-1.6	-0.1
Yeast UUG start	-0.5	·	-5.5	-7.9	7.9	-16.3	-0.8	16.8
FN deposit inh	·	·	6.3	-5.3	-2.5	·	-2.9	-5.6

17) COn1c(SCc2ccc(C)cc2C)nc2ccccc2c1=O
18) COn1c(-n2nc(C)cc2C)nc2ccccc2c1=O
19) CC(C)N(C(=O)CSc1nnc(-c2cc3ccccc3cc2O)n1Cc1ccco1)C(C)C
20) CCC(=O)N(C1=C(NC(C)C)C(=O)c2ccccc2C1=O)C(C)C
21) O=C(c1ccc(Cl)c(Cl)c1)N1CCC(=O)N(C(COCc2cccc(Cl)c2)Cc2ccccc2)CC1 (stereo not given)
22) O=C(c1ccc(Cl)c(Cl)c1)N1CCC(=O)N([C@H](COCc2ccc(Cl)cc2)Cc2ccccc2)CC1
23) O=C(c1cccc(Cl)c1)N1CCC(=O)N(C(COCc2cccc(Cl)c2)Cc2ccccc2)CC1 (stereo not given)
24) CC(C)NC(=O)N(C)C[C@@H]1Oc2ccc(NS(=O)(=O)c3ccccc3)cc2C(=O)N([C@@H](C)CO)C[C@@H]1C

entry no.	17	18	19	20	21	22	23	24
PGC1a acetyl inh	·	1.0	-13.8	·	-15.7	·	-13.7	1.3
miR122 inh	2.6	3.3	0.2	-10.6	-4.1	·	1.3	-5.3[16.7 µM]
HIV Env fusion	57.3*	·	-31.9	28.2	90.7*	-5.6	59.6*	·
Cneo AK release	-3.9	91.2*	4.6	0.8	-2.0	·	-0.6	-1.9
Yeast UUG start	6.7	-16.6	-8.2	0.9	-4.5	·	-7.8	-6.9
FN deposit inh	3.1	·	2.2	-1.4	11.3	10.3	-1.4	-4.6

25) COC(=O)c1ccc(Nc2nnc(-c3ccc(C)c(S(=O)(=O)NCC4CCCO4)c3)c3ccccc23)cc1 (stereo not given)
26) CCOC(=O)CNS(=O)(=O)c1cc(-c2nnc(Nc3ccc4c(c3)OCO4)c3ccccc23)ccc1C
27) Cc1ccc(-c2nnc(Nc3ccc(O)cc3)c3ccccc23)cc1S(=O)(=O)NCCO
28) COCCNC(=O)C[C@H]1C[C@H]2c3cc(NC(=O)CC4CC4)ccc3O[C@H]2[C@H](CO)O1
29) O=C(Nc1ccc(F)cc1)c1sc2cc(C(F)(F)F)cnc2c1-c1cccs1
30) CC(=O)Oc1ccc(-c2csnn2)cc1
31) O=C(CCC1CC(=O)Nc2ccccc21)NCc1ccc(F)cc1 (stereo not given)
32) COC(=O)[C@@H](Cc1ccccc1)N(Cc1ccccc1)S(=O)(=O)N(Cc1ccccc1)[C@H](Cc1ccccc1)C(=O)OC

entry no.	25	26	27	28	29	30	31	32
PGC1a acetyl inh	·	-168.3	-2.0	3.3	113.8*	94.6*	-5.1	·
miR122 inh	249.7*	106.4*	48.8	1.6[16.7 µM]	-0.6	-2.2	1.8	·
HIV Env fusion	-14.2	·	16.3	-16.3[16.7 µM]	·	·	·	40.3
Cneo AK release	1.0	·	-1.5	0.7	·	1.6	-0.7	-0.9
Yeast UUG start	-7.5	·	-3.1	-11.7	·	-15.6	-3.3	-2.2
FN deposit inh	8.9	·	7.6	7.4	·	·	·	8.3

33) CS(=O)(=O)N(Cc1cccc(CN(C(C(=O)O)c2ccccc2)S(C)(=O)=O)c1)C(C(=O)O)c1ccccc1 (stereo not given)
34) COC(=O)[C@@H](CC(C)C)N(Cc1ccccc1)S(=O)(=O)N(Cc1ccccc1)[C@@H](CC(C)C)C(=O)OC
35) CC(C)C[C@@H](C(=O)O)N(Cc1cccc(CN([C@@H](CC(C)C)C(=O)O)S(C)(=O)=O)c1)S(C)(=O)=O
36) CON(C)c1nc(OCCNC(=O)COc2ccc(Cl)cc2C)nc(N(C)C)n1
37) CON(C)c1nc(OCCNC(=O)OCc2ccc(Cl)cc2Cl)nc(N(C)C)n1
38) CN(C)c1nc(OCCNC(=O)Nc2ccc(Cl)cc2)nc(N(C)C)n1
39) NCC12CC3CC(C1)CC(CN)(C3)C2
40) C[C@@H]1CCCCO[C@@H](CN(C)Cc2ccncc2)[C@@H](C)CN([C@H](C)CO)C(=O)c2cc(NC(=O)CCCCCC(=O)Nc3ccccc3N)ccc2O1
41) CO[C@H]1CN(C)C(=O)c2cc(NS(=O)(=O)CC(F)(F)F)ccc2OC[C@@H](C)N(Cc2cccnc2)C[C@@H]1C

entry no.	33	34	35	36	37	38	39	40	41
PGC1a acetyl inh	4.0	·	-3.6	-9.6	·	-11.9	10.5	8.9	-6.0
miR122 inh	-1.3	0.0	-3.8	-6.3	1.9	-2.6	-2.1	·	·
HIV Env fusion	21.4	85.2*	60.8*	162.7*	138.6*	2.8	25.1	·	·
Cneo AK release	0.3	-3.1	-0.7	2.2	-0.9	-0.8	7.0	·	88.2*
Yeast UUG start	4.3	41.8	-4.2	1.4	-8.3	-14.5	2.3	·	-1.0
FN deposit inh	-4.1	25.5	1.1	0.0	9.8	-1.1	-16.4	·	·

# Given bar-delimited: part of the list above
item | molecule | PGC1a acetyl inh | miR122 inh | HIV Env fusion | Cneo AK release | Yeast UUG start | FN deposit inh
35 | CC(C)C[C@@H](C(=O)O)N(Cc1cccc(CN([C@@H](CC(C)C)C(=O)O)S(C)(=O)=O)c1)S(C)(=O)=O | -3.6 | -3.8 | 60.8* | -0.7 | -4.2 | 1.1
36 | CON(C)c1nc(OCCNC(=O)COc2ccc(Cl)cc2C)nc(N(C)C)n1 | -9.6 | -6.3 | 162.7* | 2.2 | 1.4 | 0.0
37 | CON(C)c1nc(OCCNC(=O)OCc2ccc(Cl)cc2Cl)nc(N(C)C)n1 | · | 1.9 | 138.6* | -0.9 | -8.3 | 9.8
38 | CN(C)c1nc(OCCNC(=O)Nc2ccc(Cl)cc2)nc(N(C)C)n1 | -11.9 | -2.6 | 2.8 | -0.8 | -14.5 | -1.1

# Bioassay records (PubChem BioAssay)
